Test: Aqueous solubility at 25° C. of carvedilol and its salt forms
Conditions: for solubility: purified water at 25° C.

## carvedilol methanesulfonate
25° C., water, time 0.5 hr
  Aqueous Solubility: 8170 µg/mL
25° C., water, time 1 hr
  Aqueous Solubility: 8400 µg/mL
25° C., water, time 4 hr
  Aqueous Solubility: 8670 µg/mL
25° C., water, time 24 hr
  Aqueous Solubility: 8700 µg/mL
25° C., water, time 70 hr
  Aqueous Solubility: 11200 µg/mL
  solubility: > 8000 µg/mL
Listed as methanesulfonate salt of carvedilol
  solubility: > 8000 µg/mL
water, 25° C.
  aqueous solubility (in words): significantly higher aqueous solubility

Reference: patent US6515010B1, “Carvedilol methanesulfonate” (SmithKline Beecham Corporation, priority 1999, dated 2003)
